Experimental data reported in PubChem BioAssay AID2288 (National Center for Advancing Translational Sciences (NCATS), 2010).
The entries are a selection whose mix differs from that of the whole data set. Calls of active or inactive are those of the source. Calls come from the whole dose curve; as a rule, active = well fitted curve in the direction sought with a large enough effect; inconclusive = small, poorly fitted or top-dose-only effect, or another doubt; inactive = no such curve, though single readings can be large or run the other way.

Test: qHTS Assay for Modulators of miRNAs and/orActivators of miR-21;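 note: % of control where 0% means no effect; miR-21 action dims this reporter so a rising signal means less miR-21 action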
Conditions: HeLa miR-21 FLuc reporter, luciferase, 48 h; at 38.3 µM (top of the series)

| Compound | activity change, positive = activation |
| --- | --- |
| COc1ccccc1OP(C)(=O)Nc1c(C)cccc1C (centres undefined) | inactive: -2.53% |
| CN1CCCCC1COC(=O)C1(O)c2ccccc2CCc2ccccc21 (centres undefined) | inactive: -5.98% |
| O=P1(Nc2ncccn2)COc2ccccc2OC1 | inactive: -0.662% |
| O=C(/C=C/c1ccccc1)OC1CN2CCC1CC2 (centres undefined) | inactive: -5.09% |
| CN(C)C1(CNC(=O)c2ccc(S(C)(=O)=O)cc2)CCCCC1 | inactive: -2.94% |
| O=[N+]([O-])c1cc([N+](=O)[O-])c(Nc2nnnn2CCO)c([N+](=O)[O-])c1 | inactive: -6.67% |
| COc1cc(C2NCCC3(OCCO3)C2(C)C)cc(OC)c1OC.O=[N+]([O-])c1cc([N+](=O)[O-])c(O)c([N+](=O)[O-])c1 (centres undefined) | inactive: -2.93% |
| CC1CCC(C(C)C)C(OP(=O)(Nc2ccccn2)c2ccccc2)C1 (centres undefined) | inactive: 14.9% |
| Cc1ccc(C(=O)OC2CN3CCC2CC3)cc1 (centres undefined) | inactive: -5.5% |
| Cc1nn(-c2ccccc2)c2c1P(=O)(N1CCOCC1)N(C)C(c1ccccc1)=N2 (centres undefined) | inactive: -4.19% |
| CC1=NCCc2c1[nH]c1ccccc21.O=[N+]([O-])c1cc([N+](=O)[O-])c(O)c([N+](=O)[O-])c1 | inactive: -8.7% |
| O=[N+]([O-])c1ccc2c(c1)nnn2O | inactive: 2.04% |
| CCOP1(=S)c2c(C)nn(CCC#N)c2N=C(c2ccc(F)cc2)N1C (centres undefined) | inactive: -14.4% |
| CN(C(=O)Cc1ccccc1)[C@@H]1CC[C@]2(CCCO2)C[C@H]1N1CCCC1 | inactive: -0.0179% |
| NC(=O)Nc1ccc([As](=O)(O)O)cc1 | inactive: -5.46% |
| Nc1ccccc1[As](=O)(O)c1ccccc1 | inactive: -0.0727% |
| O=C(O)COc1ccc([As](=O)(O)O)cc1[N+](=O)[O-] | inactive: 2.68% |
| CS(=O)(=O)c1cc([N+](=O)[O-])c2no[n+]([O-])c2c1 | inactive: 7.56% |
| O=P(Nc1nccs1)(Oc1ccccc1)Oc1ccccc1 | inactive: 1.26% |
| O=P(Nc1nccs1)(c1ccccc1)c1nc2ccccc2s1 (centres undefined) | inactive: 20% |
| CCOP1(=S)c2c(C)nn(CCC#N)c2N=C(c2ccccc2F)N1C (centres undefined) | inactive: -5.6% |
| CCOP(=O)(Nc1cccc2ccccc12)OCC | inactive: -6.9% |
| Cc1ccc(C)c(NP(C)(=O)Oc2ccccc2)c1 (centres undefined) | inactive: -1.55% |
| CCCOP(=S)(Nc1nc(N)cc(=O)[nH]1)OCCC | inactive: 2.05% |
| Cc1ccc(NCCc2c([N+](=O)[O-])cc([N+](=O)[O-])cc2[N+](=O)[O-])cc1 | inactive: 0.875% |

| Compound | activity change, positive = activation |
| --- | --- |
| Nc1cccc2c([As](=O)(O)O)cccc12 | inactive: 0.179% |
| Cc1cc(C)cc(OP(C)(=O)Nc2ccccn2)c1 (centres undefined) | inactive: 1.1% |
| CP(=O)(Nc1cccc(Br)c1)Oc1ccccc1 (centres undefined) | inactive: -2.49% |
| CCOC(=O)c1ccc(NP(C)(=O)Oc2cc(C)cc(C)c2)cc1 (centres undefined) | inactive: 6.14% |
| Cc1cc(C)cc(OP(C)(=O)Nc2ccc(C)cc2C)c1 (centres undefined) | inactive: -2.64% |
| Cc1cccc(OCC(=O)OC2CN3CCC2CC3)c1 (centres undefined) | inactive: -4.16% |
| O=[As](O)(c1cccc(O)c1)c1cccc(O)c1 | inactive: 4.3% |
| COc1ccccc1OP(C)(=O)Nc1cccc(Br)c1 (centres undefined) | inactive: -1.33% |
| CS(=O)(=O)c1ccc(Cl)c(NC(=O)COC(=O)C(O)(c2ccccc2)c2ccccc2)c1 | inactive: 4.65% |
| O=[As](O)(O)c1cccnc1 | inactive: 1.98% |
| COc1cc(C(=O)NCC2(N3CCOCC3)CCCCC2)cc(Cl)c1OC(C)C | inactive: 0.403% |
| O=C(OC1CN2CCC1CC2)c1ccc(Cl)cc1 (centres undefined) | inactive: -6.23% |
| CC(=O)Nc1ccc(Oc2c([N+](=O)[O-])cc([N+](=O)[O-])cc2[N+](=O)[O-])cc1 | inactive: -3.16% |
| CC(=O)Nc1ccc([As](=O)(O)O)c(O)c1 | inactive: 0.796% |
| CC(=O)c1ccc(N2CC2c2ccncc2)cc1 (centres undefined) | inactive: -2.3% |
| C[C@H]1OP(=O)(Oc2ccccc2)C[C@@H]2O[C@@H]21 (some centres undefined) | inactive: -10.6% |
| C[C@@H]1C=CCP(=O)(Oc2ccccc2)O1 (some centres undefined) | inactive: -0.808% |
| O=C(OCCN1CCN(CCOCc2ccccc2)CC1)C(O)(c1ccccc1)c1ccccc1 | inactive: -7.81% |
| CP(=O)(Nc1ccccc1F)Oc1ccccc1 (centres undefined) | inactive: -2.35% |
| CC(C)c1ccc(OP(C)(=O)Nc2ccc(SC(F)(F)F)cc2)cc1 (centres undefined) | inactive: 6.95% |
| CC(C)(C)C(=O)NC(Sc1ccccc1)C(Cl)(Cl)Cl (centres undefined) | inactive: -0.868% |
| CCOc1ccc(C2=NCC(CBr)S2)cc1 (centres undefined) | inactive: -14.7% |
| O=P1(Nc2nc3ccc(Cl)cc3s2)COc2ccccc2O1 (centres undefined) | inactive: -28% |
| CP(=O)(Nc1ccccc1)Oc1ccc(F)cc1 (centres undefined) | inactive: 0.758% |
| CCCCCOc1ccc(NP(C)(=O)Oc2ccc(Cl)cc2Cl)cc1 (centres undefined) | inactive: -5.24% |

| Compound | activity change, positive = activation |
| --- | --- |
| O=c1c2cc([N+](=O)[O-])ccc2[nH]c2c([N+](=O)[O-])cc([N+](=O)[O-])cc12 | inactive: 17.1% |
| CN(C)C(=O)Oc1noc2ccccc12 | inactive: -0.857% |
| Cc1ccccc1OP(=O)(Nc1ccccn1)Oc1ccccc1C | inactive: 18.4% |
| CC(=O)NC(SC(=S)N(CC(C)C)CC(C)C)C(Cl)(Cl)Cl (centres undefined) | inactive: -0.0649% |
| Cc1ccc(OP(=O)(Nc2ccccn2)Oc2ccc(C)cc2)cc1 | inactive: 15.7% |
| COC(=O)c1cc2c(s1)N=C(c1ccccc1)N(C)P2(=O)N1CCOCC1 (centres undefined) | inactive: -1.01% |
| CCN(CC)CCCOC(=O)C(O)(c1ccccc1)C1CCCCC1 (centres undefined) | inactive: 1.54% |
| CCC(=O)N1C2C3N(C(=O)CC)C1C1N(C(=O)CC)C(C(N1C(=O)CC)N3C(=O)CC)N2C(=O)CC | inactive: -1.71% |
| O=C(OC1CN2CCC1CC2)c1ccccc1 (centres undefined) | inactive: -1.01% |
| CCOC(=O)c1ccc(NP(C)(=O)Oc2ccc(F)cc2)cc1 (centres undefined) | inactive: -12.2% |
| COc1ccc(OP(C)(=O)Nc2ccc(SC(F)(F)F)cc2)cc1 (centres undefined) | inactive: 2.98% |
| CCNC(=S)/N=C(\N)N[N+](=O)[O-] | inactive: -1.72% |
| O=C(NC1CCS(=O)(=O)C1)NP(=S)(Oc1ccccc1)Oc1ccccc1 (centres undefined) | inactive: -5.14% |
| Cc1ccc(NP(=O)(Oc2cccc(C)c2)Oc2cccc(C)c2)nc1 | inactive: 2.07% |
| CCOC(=O)NC(Sc1ccccc1)C(Cl)(Cl)Cl (centres undefined) | inactive: 0.5% |
| c1ccc(-c2nn[nH]n2)c(-c2nn[nH]n2)c1 | inactive: -2.54% |
| C(Cc1nn[nH]n1)Cc1nn[nH]n1 | inactive: 2.29% |
| Nc1ccc([As](=O)(O)c2ccc([N+](=O)[O-])cc2)cc1 | inactive: 1.46% |
| O=C(OC1CN2CCC1CC2)c1cccc(Cl)c1 (centres undefined) | inactive: -4.77% |
| O=[N+]([O-])c1ccc(O)c(/C=N/Nc2ccc([N+](=O)[O-])cc2[N+](=O)[O-])c1 | inactive: 26.8% |
| CC(=O)NC(SC(=S)N(C)C)C(Cl)(Cl)Cl (centres undefined) | inactive: 17.5% |
| O=[N+]([O-])c1ccc(OP2(=O)COCCO2)cc1 (centres undefined) | inactive: 2.75% |
| O=[N+]([O-])c1ncn(CCn2cnc([N+](=O)[O-])n2)n1 | inactive: 0.0625% |
| Cc1cc(-c2cccc3ccccc23)c(C)cn1.O=[N+]([O-])c1cc([N+](=O)[O-])c(O)c([N+](=O)[O-])c1 | inactive: 15.3% |
| O=[As](O)(c1ccccc1)c1ccc(O)cc1 | inactive: 3.93% |

| Compound | activity change, positive = activation |
| --- | --- |
| C[C@H]1OP(=O)(Oc2ccccc2)[C@H](O)[C@H](O)[C@H]1N=[N+]=[N-] (some centres undefined) | inactive: 1.1% |
| CN(C)CCOC(=O)C(O)(c1ccccc1)C1CCCCC1 (centres undefined) | inactive: 1.08% |
| O=P(Nc1nc2ccccc2s1)(c1ccccc1)c1ccccc1 | inactive: -9.7% |
| COc1ccc(NP(C)(=O)Oc2ccccc2OC)cc1 (centres undefined) | inactive: 3.45% |
| COc1ccc(OP(C)(=O)Nc2cccc(Br)c2)cc1 (centres undefined) | inactive: -4.07% |
| O=P(Nc1ccccn1)(c1ccc(Br)cc1)c1ccc(Br)cc1 | inactive: 9.28% |
| CN(C)C1(CNC(=O)c2ccc(Cl)c(S(N)(=O)=O)c2)CCCCC1 | inactive: 2.04% |
| Cc1ccccc1NP(C)(=O)Nc1ccccc1C | inactive: -5.69% |
| CP(=O)(Nc1ccc2c(c1)OCCO2)Oc1ccccc1 (centres undefined) | inactive: -11.7% |
| CCOP(C)(=S)SCC(=O)NC(C)(CC)C(=O)O (centres undefined) | inactive: -6.59% |
| c1nnnn1CCn1cnnn1 | inactive: -0.02% |
| CP(=O)(Nc1ccc(SC(F)(F)F)cc1)Oc1ccc(F)cc1 (centres undefined) | inactive: 7.95% |
| CC(C)C(=O)NC(Sc1ccccc1)C(Cl)(Cl)Cl (centres undefined) | inactive: -1.36% |
| O=P(Nc1nccs1)(c1ccccc1)c1ccccc1 | inactive: -0.196% |
| CN(C)C(=O)OCCc1n(C)cc[n+]1C | inactive: 0.538% |
| CC(C)=N/N=C(\N)N[N+](=O)[O-] | inactive: -1.02% |
| CC1CCN(C(=O)Oc2c(Cl)cc(Cl)c3cccnc23)CC1 | inactive: -19.2% |
| COc1ccccc1OP(C)(=O)Nc1ccccc1Br (centres undefined) | inactive: 2.89% |
| CC(C)(C)c1ccc(OP(C)(=O)O)cc1 | inactive: 0.124% |
| Nc1ccc([As](=O)(O)c2ccc(N)cc2)cc1 | inactive: -0.392% |
| CP(=O)(Nc1ccc(Cl)cc1)Oc1ccc(F)cc1 (centres undefined) | inactive: -0.633% |
| CCN(/C(=N/P(=O)(N1CCOCC1)N1CCOCC1)N1CCOCC1)c1ccc(OC)cc1 | inactive: -1.54% |
| O=C(OCCCN1CCCC1)C(O)(c1ccccc1)C1CCCCC1 (centres undefined) | inactive: -2.29% |
| O=[N+]([O-])c1cccc2n[nH]nc12 | inactive: -9.32% |
